This assay deals with LSK cells. Put plainly: Co-administration of cytokines and FLT3L, LSK cell mobilization (Example 4). It counts as in vivo. The note with it: IFN-β co-administered with GM-CSF or FLT3L. The source says: The co-administration of cytokines is common in other types of cell mobilization methods. […] LSK cells are hematopoietic stem cells that were Lin-negative, Scal -positive, and c-kit-negative.

B1: IFN-β: a routinely utilized cytokine, co-administered with GM-CSF or FLT3L (protein, UniProt P01574 22-187, looked up)
Interferon beta: MSYNLLGFLQRSSNFQCQKLLWQLNGRLEYCLKDRMNFDIPEEIKQLQQFQKEDAALTIYEMLQNIFAIFRQDSSSTGWNETIVENLLANVYHQINHLKTVLEEKLEKEDFTRGKLMSSLHLKRYYGRILHYLKAKEYSHCAWTIVRVEILRNFYFINRLTGYLRN
For B1, the “percentage of LSK cells” value is recorded as “dramatically reduced”.
